The test deals with D-245 MG (PR) xenografts. In words: MMR deficient malignant glioma xenograft, combination with temozolomide. It counts as in vivo, mice.

Several values for one entry are separate records, joined by “and”; a condition that tells them apart may be missing. Equal values may be shown once. Where a name gives a salt, the structure may show the parent alone.

As to `O=c1[nH]c2c(c3ccccc13)Cc1cc(S(=O)(=O)NCCCN3CCOCC3)ccc1-2` [Compound 8l (mesylate salt), 9-[N-(3-[morpholino-4-yl]propyl)-aminosulphonyl]-5,6-dihydro-5-oxo-11H-indeno-[1,2c]isoquinoline], the partial regressions observed (8l (mesylate salt) 150 mg/kg i.p. x3 + 262.5 mg/kg TMZ, MMR deficient, two experiments) was 4 of 8 and 3 of 9. Moreover, for the setting “8l (mesylate salt) with temozolomide vs temozolomide alone”, the “effect on tumor volume (FIG. 1)” value was “markedly enhances the anti-tumor effects of TMZ”.

On to `Cn1nnc2c(C(N)=O)ncn2c1=O` [TMZ, temozolomide, reference compound], for which the tumor-control growth delay (TMZ alone 262.5 mg/kg (0.75 LD10), MMR deficient, two experiments) was around 4 days.
